Consider 23 molecules from US11618753B2 (priority 2018, dated 2023).

Amino acid sequences for entries named in this document (tags omitted). A change or cut given only in a name is not applied to a line headed by its entry.
UniProt O00329: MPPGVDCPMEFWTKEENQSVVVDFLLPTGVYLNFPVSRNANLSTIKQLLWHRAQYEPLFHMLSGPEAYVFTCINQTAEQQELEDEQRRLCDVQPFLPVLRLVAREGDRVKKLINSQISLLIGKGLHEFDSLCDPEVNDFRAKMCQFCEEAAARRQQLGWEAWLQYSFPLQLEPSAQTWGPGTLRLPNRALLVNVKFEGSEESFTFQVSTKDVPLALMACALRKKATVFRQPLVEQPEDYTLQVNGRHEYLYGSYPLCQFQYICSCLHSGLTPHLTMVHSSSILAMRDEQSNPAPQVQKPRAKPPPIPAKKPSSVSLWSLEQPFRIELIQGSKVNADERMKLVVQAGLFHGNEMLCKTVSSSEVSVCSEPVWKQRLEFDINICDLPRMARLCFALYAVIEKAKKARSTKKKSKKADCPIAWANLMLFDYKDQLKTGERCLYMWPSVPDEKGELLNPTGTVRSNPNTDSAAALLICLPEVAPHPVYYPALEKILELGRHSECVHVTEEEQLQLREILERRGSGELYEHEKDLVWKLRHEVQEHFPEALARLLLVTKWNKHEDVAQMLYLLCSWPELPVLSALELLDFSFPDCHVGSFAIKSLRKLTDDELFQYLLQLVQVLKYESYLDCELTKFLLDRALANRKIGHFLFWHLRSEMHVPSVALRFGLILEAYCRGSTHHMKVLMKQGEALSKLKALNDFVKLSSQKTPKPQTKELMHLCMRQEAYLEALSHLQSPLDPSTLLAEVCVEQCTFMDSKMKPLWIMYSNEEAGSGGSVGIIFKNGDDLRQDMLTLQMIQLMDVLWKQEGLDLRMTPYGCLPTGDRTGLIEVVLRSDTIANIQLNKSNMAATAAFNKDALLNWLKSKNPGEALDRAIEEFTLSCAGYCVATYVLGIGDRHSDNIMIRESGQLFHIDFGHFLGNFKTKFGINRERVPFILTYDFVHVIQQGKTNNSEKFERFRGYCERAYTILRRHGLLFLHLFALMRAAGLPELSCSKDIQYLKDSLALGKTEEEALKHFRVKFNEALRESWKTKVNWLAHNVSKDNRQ

The pIC50 is the negative decadic logarithm of the IC50, by convention in mol/L. A higher pIC50 goes with a low IC50.

pIC50: −log10 of the molar value. Where only a bound is given, the exact number is not on record here.

In the assay the target is GST-tagged PIK3Cδ in complex with PIK3R1 (Homo sapiens (Human), UniProt O00329). Put plainly: biochemical.
`CC(CCNC(=O)c1cccc(-c2c(F)cc3c(N)ncnn23)c1)c1ccccc1` (racemic) [Example 69, 3-{4-amino-6-fluoropyrrolo[2,1-f][1,2,4]triazin-7-yl}-N-(3-phenylbutyl) benzamide] gave a pIC50 of under 5.82.
Then `COc1ccc(-c2cc(C(F)(F)F)c3c(N)ncnn23)cc1C(=O)NCCC(C)c1ccccc1` (racemic) [Example 160, 5-[4-amino-5-(trifluoromethyl)pyrrolo[2,1-f][1,2,4]triazin-7-yl]-2-methoxy-N-(3-phenylbutyl)benzamide], with under 5.82; and `COc1ncc(-c2cc(C(F)(F)F)c3c(N)ncnn23)cc1C(=O)N[C@H]1CCC[C@@H](c2ccccc2)C1` (racemic) [Example 1693, 5-(4-amino-5-(trifluoromethyl)pyrrolo[2,1-f][1,2,4]triazin-7-yl)-2-methoxy-N-((1SR,3RS)-3-phenylcyclohexyl)nicotinamide], with under 4.82.
Then `Nc1ncnn2c(-c3cc(C(=O)N[C@@H]4CN(C(=O)C5CCC(F)(F)C5)C[C@@H]4F)c(Cl)cc3F)cc(C(F)(F)F)c12` (single isomer, unassigned) [Example 886], with 6.07.
As for `CC(CCNC(=O)c1cccc(-c2ccc3c(N)ncnn23)c1)c1ccccc1` (centres unmarked) [Example 1, 3-{4-aminopyrrolo[2,1-f][1,2,4]triazin-7-yl}-N-(3-phenylbutyl)benzamide], the pIC50 is under 5.82.
Then `CC(CCNC(=O)c1cccc(-c2cc(C(F)(F)F)c3c(N)ncnn23)c1)c1ccccc1` (centres unmarked) [Example 2, 3-[4-amino-5-(trifluoromethyl)pyrrolo[2,1-f][1,2,4]triazin-7-yl]-N-(3-phenylbutyl)benzamide], with 5.92; and `Nc1ncnn2c(-c3ccc(F)c(C(=O)Nc4cnn(Cc5ccccc5)c4)c3)cc(C(F)(F)F)c12` [Example 3, 5-[4-amino-5-(trifluoromethyl)pyrrolo[2,1-f][1,2,4]triazin-7-yl]-N-(1-benzyl-1H-pyrazol-4-yl)-2-fluorobenzamide], with under 5.82.
As to `COc1ncc(-c2cc(F)c3c(N)ncnn23)cc1C(=O)Nc1cnn(Cc2ccccc2)c1` [Example 8, 5-{4-amino-5-fluoropyrrolo[2,1-f][1,2,4]triazin-7-yl}-N-(1-benzyl-1H-pyrazol-4-yl)-2-methoxypyridine-3-carboxamide], the pIC50 was under 5.82.
Then `Nc1ncnn2c(-c3cnc(F)c(C(=O)NCC[C@H](O)c4ccc(Cl)cc4)c3)cc(C(F)(F)F)c12` [Example 17, 5-[4-amino-5-(trifluoromethyl)pyrrolo[2,1-f][1,2,4]triazin-7-yl]-N-[(3S)-3-(4-chlorophenyl)-3-hydroxypropyl]-2-fluoropyridine-3-carboxamide], with under 5.82; and `Nc1ncnn2c(-c3cccc(C(=O)Nc4cnn(Cc5ccccc5)c4)c3)ccc12` [Example 60, 3-(4-aminopyrrolo[2,1-f][1,2,4]triazin-7-yl)-N-(1-benzyl-1H-pyrazol-4-yl)benzamide], with under 5.82.
Then `COc1ncc(-c2c(F)cc3c(N)ncnn23)cc1C(=O)NCCC(C)c1ccccc1` (centres unmarked) [Example 61, 5-(4-amino-6-fluoropyrrolo[2,1-f][1,2,4]triazin-7-yl)-2-methoxy-N-(3-phenylbutyl)nicotinamide], with under 5.82.
To `COc1ncc(-c2c(F)cc3c(N)ncnn23)cc1C(=O)Nc1cnn(Cc2ccccc2)c1` [Example 62, 5-(4-amino-6-fluoropyrrolo[2,1-f][1,2,4]triazin-7-yl)-N-(1-benzyl-1H-pyrazol-4-yl)-2-methoxynicotinamide] belongs under 5.82; to `COc1ccc(-c2cc(C(F)(F)F)c3c(N)ncnn23)cc1C(=O)Nc1cnn(Cc2ccccc2)c1` [Example 65, 5-[4-amino-5-(trifluoromethyl)pyrrolo[2,1-f][1,2,4]triazin-7-yl]-N-(1-benzyl-1H-pyrazol-4-yl)-2-methoxybenzamide], 5.85; to `Nc1ncnn2c(-c3cccc(C(=O)Nc4cnn(Cc5ccccc5)c4)c3)c(F)cc12` [Example 71, 3-{4-amino-6-fluoropyrrolo[2,1-f][1,2,4]triazin-7-yl}-N-(1-benzyl-1H-pyrazol-4-yl)benzamide], under 5.82.
For `Nc1ncnn2c(-c3cccc(C(=O)NCC[C@@H](O)c4ccc(Cl)cc4)c3)cc(C(F)(F)F)c12` [Example 73, 3-[4-amino-5-(trifluoromethyl)pyrrolo[2,1-f][1,2,4]triazin-7-yl]-N-[(3R)-3-(4-chlorophenyl)-3-hydroxypropyl]benzamide], the pIC50 was 6.78.
Then `Nc1ncnn2c(-c3cccc(C(=O)NCCC(O)c4ccc(F)cc4)c3)cc(C(F)(F)F)c12` (centres unmarked) [Example 74, 3-[4-amino-5-(trifluoromethyl)pyrrolo[2,1-f][1,2,4]triazin-7-yl]-N-[3-(4-fluorophenyl)-3-hydroxypropyl]benzamide], with 6.92; and `Nc1ncnn2c(-c3cccc(C(=O)Nc4cnn(Cc5ccccc5)c4)c3)cc(C(F)(F)F)c12` [Example 76, 3-[4-amino-5-(trifluoromethyl)pyrrolo[2,1-f][1,2,4]triazin-7-yl]-N-(1-benzyl-1H-pyrazol-4-yl)benzamide], with 5.94.
To `Nc1ncnn2c(-c3cccc(C(=O)NCC[C@H](O)c4ccc(Cl)cc4)c3)cc(C(F)(F)F)c12` [Example 77, 3-[4-amino-5-(trifluoromethyl)pyrrolo[2,1-f][1,2,4]triazin-7-yl]-N-[(3S)-3-(4-chlorophenyl)-3-hydroxypropyl]benzamide] belongs 6.59.
Then `Nc1ncnn2c(-c3cccc(C(=O)N[C@H]4CCN(Cc5ccccc5)C4)c3)cc(C(F)(F)F)c12` [Example 78, 3-[4-amino-5-(trifluoromethyl)pyrrolo[2,1-f][1,2,4]triazin-7-yl]-N-[(3S)-1-benzylpyrrolidin-3-yl]benzamide], with 7.35.
Regarding `Nc1ncnn2c(-c3cccc(C(=O)N4CCC[C@H](Cc5ccc(F)cc5)C4)c3)cc(C(F)(F)F)c12` [Example 81, 7-{3-[(3R)-3-[(4-fluorophenyl)methyl)piperidine-1-carbonyl]phenyl}-5-(trifluoromethyl)pyrrolo[2,1-f][1,2,4]triazin-4-amine], the pIC50 is 6.25.
Then `Nc1ncnn2c(-c3cccc(C(=O)N4CCC[C@@H](Cc5ccc(F)cc5)C4)c3)cc(C(F)(F)F)c12` [Example 82, 7-{3-[(3S)-3-[(4-fluorophenyl)methyl]piperidine-1-carbonyl]phenyl}-5-(trifluoromethyl)pyrrolo[2,1-f][1,2,4]triazin-4-amine], with under 5.82; and `COc1ncc(-c2cc(C(F)(F)F)c3c(N)ncnn23)cc1C(=O)NCCC(C)c1ccccc1` (centres unmarked) [Example 109, 5-[4-amino-5-(trifluoromethyl)pyrrolo[2,1-f][1,2,4]triazin-7-yl]-2-methoxy-N-(3-phenylbutyl)pyridine-3-carboxamide], with under 5.82.
To `COc1ncc(-c2cc(C(F)(F)F)c3c(N)ncnn23)cc1C(=O)Nc1cnn(Cc2ccccc2)c1` [Example 110, 5-[4-amino-5-(trifluoromethyl)pyrrolo[2,1-f][1,2,4]triazin-7-yl]-N-(1-benzyl-1H-pyrazol-4-yl)-2-methoxypyridine-3-carboxamide] belongs under 5.82.
